Assay results: EP4821493A1, “PHARMACEUTICAL COMPOSITION FOR TREATING CANCER COMPRISING SIMULTANEOUS INHIBITOR OF HISTONE DEACETYLASE 6 AND HISTONE DEACETYLASE 10” (dated 2026)

How the values were obtained:
HDAC = HDAC inhibitory effect (histone acetylation; Western blot); details: CT26, Bufexamac 10 µM, 50 µM, 48 hrs, vs control group
M2 macrophages = test: M2 macrophage modulation, morphological changes; details: THP-1-derived M2 macrophages, 48 hrs
CD206 = test: M2 macrophage modulation (RT-PCR; CD206); details: 48 hrs
[1] = test system: mouse MSS colorectal cancer cell line CT26; test: Animal experiment, CT26 subcutaneous tumors: tumor volume and weight; details: Bufexamac alone 50 mg/kg, daily intraperitoneal, vs control group
[2] = Animal experiment: mouse body weight; details: CT26 tumor-bearing BALB/c mice, 50 mg/kg daily intraperitoneal
bone marrow cells = test: Analysis of bone marrow cells by flow cytometry (FACS)
PD-L1 [3] = test: PD-L1 expression by qRT-PCR in the human MSS CRC cell line; details: human MSS CRC cell line SW620, 5 µM, vs control group, GAPDH control gene
PD-L1 [4] = test: PD-L1 expression by qRT-PCR in the mouse MSS CRC cell line; details: mouse MSS CRC cell line CT26, 5 µM, vs control group, GAPDH control gene
[5] = test system: CT26 colorectal cancer cell line; test: IC50 measurement by WST assay; details: CT26, 1×10^4 cells, 72 hrs, concentration at which half of the cells died

Q: With `CCCCOc1ccc(CC(=O)NO)cc1` as the molecule, how does the “degree of H3K9 acetylation” value (HDAC) read?
A: weak, but was confirmed to be increased compared with the control group

Q: What about the “morphological changes in M2 macrophages” value (M2 macrophages; 50 µM) of the same molecule?
A: round shape similar to M0 macrophages

Q: What about the “RNA expression of CD206, an M2 macrophage marker” value (CD206; THP-1-derived M2 macrophages, 5, 10, 50 µM) of the same molecule?
A: decreased

Q: What about the tumor volume [1] of the same molecule?
A: no significant change

Q: What about the tumor weight [1] of the same molecule?
A: no significant change

Q: And the “body weight of the mice” value [2]?
A: not reduced

Q: What about the M2 macrophages (bone marrow cells) of the same molecule?
A: no change

Q: And the “myeloid-derived suppressor cells (MDSCs)” value (bone marrow cells)?
A: no change

Q: And the M1 macrophages (bone marrow cells; dual inhibitor administered alone)?
A: increase compared with other groups

Q: What about the “mRNA expression of PD-L1” value (PD-L1 [3]) of the same molecule?
A: statistically significantly increased

Q: What about the “mRNA expression of PD-L1” value (PD-L1 [4]) of the same molecule?
A: statistically significantly increased

Q: And the IC50 [5]?
A: 107 µM

Q: Which results are given for `CCCCN(Cc1ccc(C(=O)NO)cc1)C(=O)Nc1ccccc1`?
A: morphological changes in M2 macrophages (M2 macrophages; 4 µM): round shape similar to M0 macrophages; RNA expression of CD206, an M2 macrophage marker (CD206; THP-1-derived M2 macrophages, 4 µM): decreased
